Experimental data published in patent US20250263426A1, “PDE4B INHIBITOR AND USE THEREOF” (Xizang Haisco Pharmaceutical Co., Ltd., priority 2022, published 2025).

Chains of the proteins cited; added tags and fusions are not shown. A line that says so, or that is headed by a name, gives the form on record, which may keep a tag or linker. Residues count along the entry.
UniProt Q07343, 212-736 with tags or gaps limits assumed: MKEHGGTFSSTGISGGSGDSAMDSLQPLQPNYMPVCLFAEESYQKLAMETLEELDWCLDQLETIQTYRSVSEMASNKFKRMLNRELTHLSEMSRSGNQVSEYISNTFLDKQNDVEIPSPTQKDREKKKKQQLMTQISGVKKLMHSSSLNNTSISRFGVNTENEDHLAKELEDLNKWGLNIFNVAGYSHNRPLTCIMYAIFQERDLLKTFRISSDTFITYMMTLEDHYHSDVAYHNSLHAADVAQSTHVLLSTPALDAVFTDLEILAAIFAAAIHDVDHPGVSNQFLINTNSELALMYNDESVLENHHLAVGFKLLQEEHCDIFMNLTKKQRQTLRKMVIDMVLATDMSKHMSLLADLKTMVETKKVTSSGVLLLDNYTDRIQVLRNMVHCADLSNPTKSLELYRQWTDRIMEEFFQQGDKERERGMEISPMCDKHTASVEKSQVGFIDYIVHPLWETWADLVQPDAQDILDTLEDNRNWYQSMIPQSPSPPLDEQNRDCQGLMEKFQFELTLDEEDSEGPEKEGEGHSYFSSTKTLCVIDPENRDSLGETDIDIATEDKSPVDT
UniProt Q08499, 303-809 limits assumed: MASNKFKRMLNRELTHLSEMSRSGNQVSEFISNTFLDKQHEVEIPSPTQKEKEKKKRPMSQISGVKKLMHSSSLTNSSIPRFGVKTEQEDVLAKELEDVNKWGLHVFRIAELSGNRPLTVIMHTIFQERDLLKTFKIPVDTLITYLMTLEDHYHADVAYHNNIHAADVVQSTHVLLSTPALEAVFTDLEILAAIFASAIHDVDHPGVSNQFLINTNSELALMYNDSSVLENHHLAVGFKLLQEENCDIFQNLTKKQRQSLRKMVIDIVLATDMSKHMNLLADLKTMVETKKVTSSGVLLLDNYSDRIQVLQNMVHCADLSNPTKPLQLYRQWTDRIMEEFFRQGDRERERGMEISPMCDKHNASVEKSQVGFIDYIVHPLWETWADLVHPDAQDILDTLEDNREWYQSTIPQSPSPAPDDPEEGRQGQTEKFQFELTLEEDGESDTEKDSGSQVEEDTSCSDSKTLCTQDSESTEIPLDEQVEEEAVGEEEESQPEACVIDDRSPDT

Assays:
PDE4B2 = PDE4B2 (Homo sapiens (Human), UniProt Q07343); experiment: Effect of compounds on PDE4B2 activity (fluorescence polarization kit); details: read-out: PDE4B2 IC50
PDE4D2 = PDE4D2 (Homo sapiens (Human), UniProt Q08499); experiment: Effect of compounds on PDE4D2 activity (fluorescence polarization kit); format: biochemical; details: read-out: PDE4D2 IC50
[1] = test system: human peripheral blood mononuclear cells (TNF-α release); experiment: Inhibition of LPS-induced TNF-α release from human peripheral blood mononuclear cells in vitro; format: cell-based; details: hPBMC, 100 ng/mL LPS, 4 h; for IC50: read-out: Re IC50, relative IC50

SMILES | IC50 (PDE4B2) [nM] | IC50 (PDE4D2) [nM] | Max inhibition (%) [1] [%] | IC50 [1] [nM]
[O-][S+]1CCCc2nc(N3CCc4c(oc5cc(Cl)ccc45)C3)nc(NC3(CO)CCC3)c21 (stereo not drawn) | < 10 | 10 to 50 | – | –
CC(C)(COC(N)=O)Nc1nc(N2CC3C=C(c4ncc5c(n4)CC5)CC3C2)nc2c1[S@+]([O-])CC2 (single isomer, unassigned) [Compound 131-1] | 10 to 50 | 10 to 50 | – | –
[O-][S+]1CCCc2nc(N3CC=C(c4ncc(C5CC5)cn4)CC3)nc(N3CCC(O)C34CCC4)c21 (single isomer, unassigned) | < 10 | < 10 | – | –
CC(C)(COC(N)=O)Nc1nc(N2C[C@H]3CN(c4ccc5c(c4)CC5)C[C@H]3C2)nc2c1[S+]([O-])CC2 (stereo partly drawn) | – | – | 75.43 | –
CC(C)(CO)Nc1nc(N2CC=C(c3ncc(Cl)cn3)CC2)nc2c1[S+]([O-])CC2 (stereo not drawn) [Compound 31] | < 10 | < 10 | – | < 10
[O-][S+]1CCc2nc(N3C[C@H]4CN(c5ccc6c(c5)CC6)C[C@H]4C3)nc(NC3(COC(F)F)CCC3)c21 (stereo partly drawn) | 10 to 50 | 10 to 50 | – | –
[O-][S+]1CCc2nc(N3C[C@H]4CN(c5ccc6c(c5)CC6)C[C@H]4C3)nc(NC3CCOCC3)c21 (stereo partly drawn) | < 10 | < 10 | 72.87 | < 10
C#Cc1cnc2c(c1)OC[C@H]1CN(c3nc4c(c(NC(C)(C)COC(N)=O)n3)[S@@+]([O-])CC4)CCN21 | – | – | 76.10 | –
[O-][S+]1CCc2nc(N3CC=C(c4ncc(Cl)cn4)CC3)nc(N3CC[C@H](CO)C34CCC4)c21 (single isomer, unassigned) [Compound 77-2] | 10 to 50 | – | – | –
COC(=O)NCC1(Nc2nc(N3CC=C(c4ncc(C5CC5)cn4)CC3)nc3c2[S+]([O-])CC3)CCC1 (single isomer, unassigned) | < 10 | < 10 | – | –
NC(=O)OCC1(Nc2nc(N3CCN4c5ccccc5OCC4C3)nc3c2[S+]([O-])CC3)CCC1 (stereo not drawn) | < 10 | < 10 | 80.31 | 10 to 50
NC(=O)OCC1(Nc2nc(N3CC4C=C(c5ncc(Cl)cn5)CC4C3)nc3c2[S+]([O-])CC3)CCC1 (single isomer, unassigned) [Compound 46-2] | < 10 | 10 to 50 | 73.36 | 10 to 50
CC(C)(COC(N)=O)Nc1nc(N2CC3C=C(c4ncc(C5CC5)cn4)CC3C2)nc2c1[S@+]([O-])CC2 (single isomer, unassigned) [Compound 121-1] | – | – | 78.80 | –
NC(=O)OCC1(Nc2nc(N3CC4C=C(c5ncc(Cl)cn5)CC4C3)nc3c2[S+]([O-])CC3)CCC1 (single isomer, unassigned) [Compound 46-1] | < 10 | < 10 | 75.89 | 10 to 50
CC(C)(COC(N)=O)Nc1nc(N2CC=C(c3ncc(C4CC4)cn3)CC2)nc2c1[S+]([O-])CCC2 (stereo not drawn) | 10 to 50 | 10 to 50 | – | –
[O-][S+]1CCc2nc(N3CC=C(c4ncc(Cl)cn4)CC3)nc(N3CC[C@H](CO)C34CCC4)c21 (single isomer, unassigned) [Compound 77-1] | < 10 | < 10 | 65.28 | < 10
[O-][S+]1CCc2nc(N3CC=C(c4ncc(C5CC5)cn4)CC3)nc(N3CCC(O)C34CCC4)c21 (single isomer, unassigned) [Compound 111-2] | < 10 | < 10 | 75.39 | < 10
[O-][S+]1CCc2nc(N3CC=C(c4ncc(C5CC5)cn4)CC3)nc(N3CCC(O)C34CCC4)c21 (single isomer, unassigned) [Compound 111-4] | < 10 | < 10 | 78.77 | < 10
CCOc1cnc(C2=CCN(c3nc4c(c(N5CCC(O)C56CCC6)n3)[S+]([O-])CC4)CC2)nc1 (single isomer, unassigned) | < 10 | < 10 | – | –
[O-][S+]1CCCc2nc(N3CCN(c4ccc5c(c4)CC5)CC3)nc(NC3(CO)CCC3)c21 (stereo not drawn) | < 10 | 10 to 50 | – | –
CC(O)C1(Nc2nc(N3CC=C(c4ncc(C5CC5)cn4)CC3)nc3c2[S+]([O-])CCC3)CCC1 (single isomer, unassigned) [Compound 144-4] | < 10 | < 10 | 94.06 | < 10

SMILES | IC50 (PDE4B2) [nM] | IC50 (PDE4D2) [nM] | Max inhibition (%) [1] [%] | IC50 [1] [nM]
C#Cc1cnc(N2CCN(c3nc4c(c(NC5(CO)CCC5)n3)[S+]([O-])CCC4)CC2)nc1 (stereo not drawn) | 10 to 50 | 10 to 50 | – | –
CC(C)(COC(N)=O)Nc1nc(N2CC3C=C(c4ncc5c(n4)CC5)CC3C2)nc2c1[S@+]([O-])CC2 (single isomer, unassigned) [Compound 131-2] | 10 to 50 | 50 to 100 | – | –
CC(COC(N)=O)Nc1nc(N2CC=C(c3ncc(Cl)cn3)CC2)nc2c1[S@+]([O-])CC2 (single isomer, unassigned) [Compound 133-1] | < 10 | 10 to 50 | – | –
C#Cc1cnc2c(c1)OC[C@@H]1CN(c3nc4c(c(NC(C)(C)COC(N)=O)n3)[S@@+]([O-])CC4)CCN21 | – | – | 67.98 | –
C[Si]1(C)CCN(c2nc(N3CC=C(c4ncc(Cl)cn4)CC3)nc3c2[S+]([O-])CC3)CC1 (stereo not drawn) | 10 to 50 | – | – | –
NC(=O)OCC1(Nc2nc(N3CC4C=C(c5ccc6c(c5)CC6)CC4C3)nc3c2[S+]([O-])CC3)CCC1 (single isomer, unassigned) [Compound 45-2] | < 10 | 10 to 50 | – | –
N#CCC1(Nc2nc(N3CC=C(c4ncc(Cl)cn4)CC3)nc3c2[S@+]([O-])CC3)CCC1 | < 10 | 10 to 50 | 71.03 | < 10
[O-][S+]1CCc2nc(N3CC=C(c4ncc(Cl)cn4)CC3)nc(N3CCC(O)C34CCC4)c21 (single isomer, unassigned) [Compound 71-4] | < 10 | < 10 | 57.63 | < 10
[O-][S+]1CCc2nc(N3CC=C(c4ncc(Cl)cn4)CC3)nc(N3CC[C@@H](CO)C34CCC4)c21 (stereo partly drawn) | < 10 | < 10 | 66.35 | < 10
CC(C)(COC(N)=O)Nc1nc(N2CC=C(c3nc4ccccc4s3)CC2)nc2c1[S+]([O-])CC2 (stereo not drawn) | – | – | 74.08 | –
NC(=O)OCC1(Nc2nc(N3CC4C=C(c5ccc6c(c5)CC6)CC4C3)nc3c2[S+]([O-])CC3)CCC1 (single isomer, unassigned) [Compound 45-1] | < 10 | < 10 | 71.28 | 10 to 50
CC(O)C1(Nc2nc(N3CC=C(c4ncc(C5CC5)cn4)CC3)nc3c2[S+]([O-])CCC3)CCC1 (single isomer, unassigned) [Compound 144-2] | < 10 | < 10 | – | –
[O-][S+]1CCc2nc(N3CC=C(c4ncc(C5CC5)cn4)CC3)nc(N3CCC(CO)C34CCC4)c21 (single isomer, unassigned) | < 10 | < 10 | – | –
[O-][S@@+]1CCc2nc(N3CC=C(c4ncc(Cl)cn4)CC3)nc(Nc3cccc(S(F)(F)(F)(F)F)c3)c21 | 10 to 50 | – | 72.31 | 10 to 50
CC(O)C1(Nc2nc(N3CC=C(c4ncc(C5CC5)cn4)CC3)nc3c2[S+]([O-])CCC3)CCC1 (single isomer, unassigned) [Compound 144-1] | 10 to 50 | 10 to 50 | – | –
CC(COC(N)=O)Nc1nc(N2CC=C(c3ncc(Cl)cn3)CC2)nc2c1[S@+]([O-])CC2 (single isomer, unassigned) [Compound 133-2] | < 10 | < 10 | – | –
[O-][S+]1CCc2nc(N3CC=C(c4ncc(Cl)cn4)CC3)nc(N3CCC(O)C34CCC4)c21 (single isomer, unassigned) [Compound 71-3] | 10 to 50 | 10 to 50 | 61.86 | < 10
CC(COC(N)=O)Nc1nc(N2CC=C(c3ncc(C4CC4)cn3)CC2)nc2c1[S@+]([O-])CC2 (single isomer, unassigned) | 10 to 50 | 10 to 50 | – | –
CNC(=O)OCC1(Nc2nc(N3CC=C(c4ncc(Cl)cn4)CC3)nc3c2[S+]([O-])CC3)CCC1 (stereo not drawn) | < 10 | < 10 | 68.15 | 10 to 50
COCC1(Nc2nc(N3CC=C(c4ncc(C5CC5)cn4)CC3)nc3c2[S+]([O-])CCC3)CCC1 (stereo not drawn) | 10 to 50 | 50 to 100 | – | –
